Laboratory results taken from US12286452B2, “Amphiphilic aminoglycoside connexin hemichannel inhibitors” (Texas Tech University System, priority 2018, dated 2025).
Like-named read-outs stand apart in the source and are kept apart here.

Biological target: T1, human Cx26 HCs (Homo sapiens, UniProt P29033)
T1 construct: expressed in transfected cells; host or cells: E. coli LB2003 (carrying pREP4), transformed with pQE-Cx26, IPTG-induced
Assay: Cx26-dependent growth complementation assay in E. coli LB2003
Format: cell-based
Description: These derivatives were prepared by sequential benzylation and methylation followed by reduction of azido groups or hydrogenolysis of the Bn. […] Connexin HC inhibition was conducted using a bacteria-based assay of HC function^39. In this assay, Cx26 HCs are expressed in E. coli LB2003 cells, which lack three major K^+ uptake systems (Kdp, Kup and Trk), and as a result they cannot grow in low-[K^+] media^39-41. However, growth of this E. coli strain in low-[K^+] medium can be rescued by expression of K^+-permeable channels such as connexin HCs^39, 42-43. Under the conditions of the assay (LB2003 cells expressing HCs and grown in low-K^+ medium), inhibition of the HCs reduces or abolishes growth^39, 42-43. This is a simple assay where bacterial growth in multi-well plates can be followed by measuring the absorbance at 600 nm (OD600)^29.
LB2003 cells generously provided by Dr. E. P. Bakker (Osnabruk University, Osnabruk, Germany) were transformed with the plasmid pQE-Cx26 (human Cx26 into pQE60) and pREP4. […] LB2003 cells cannot grow in low-[K^+] media because of insufficient K^+ uptake for growth due to the knockout of three key K^+ transporters (Atrk, Akup, Akdp strain)^2-4. Details and validation of the growth complementation assay have been published recently^2. In brief, competent LB2003 containing the pREP4 plasmid were transformed with pQE-Cx26. These cells were grown overnight in Luria-Bertani medium (BD, Franklin Lakes, NJ, USA) supplemented with 100 mM KCl (to allow growth) and 0.4 mg/mL ampicillin, and then washed four times with NLM (see below), to remove residual K^+ from the Luria-Bertani medium. The washed cells were resuspended in complementation growth medium to an OD600 of 0.2. NLM contained 46 mM Na2HPO4, 23 mM NaH2PO4, 8 mM (NH4)2SO4, 0.4 mM MgSO4, 0.012 mM FeSO4, 1 mM sodium citrate, 44 mM glucose and 0.006 mM thiamine hydrochloride, pH 7.0. […] OD600 was measured after 18-h incubation in a plate reader. […] Statistically significant differences were calculated by the Student t-test for unpaired data. […]

Measured: IC50

NC[C@H]1O[C@H](O[C@H]2[C@H](O)[C@@H](O[C@@H]3O[C@H](COCc4ccccc4)[C@@H](OCc4ccccc4)[C@H](N)[C@H]3O)[C@H](N)C[C@@H]2N)[C@H](O)[C@@H](O)[C@@H]1O [Compound 7, 4″,6″-Di-O-benzylkanamycin]
7.6 ± 1.2 µM: 4″,6″-disubstituted AKs, Table 5, read-out: Cx26 IC50 | K46 members, the 20th table, read-out: IC50 (μM) against Cx26 | read-out: IC50, inhibition of Cx26 by kanamycin A and synthetic AGs, first Table 1
